This note sets out measurements from PubChem BioAssay AID1018 (Sanford-Burnham Center for Chemical Genomics, 2008).

Protein sequences, listed by entry. Tags and fused reporters are not part of them.
UniProt P98170, whole entry: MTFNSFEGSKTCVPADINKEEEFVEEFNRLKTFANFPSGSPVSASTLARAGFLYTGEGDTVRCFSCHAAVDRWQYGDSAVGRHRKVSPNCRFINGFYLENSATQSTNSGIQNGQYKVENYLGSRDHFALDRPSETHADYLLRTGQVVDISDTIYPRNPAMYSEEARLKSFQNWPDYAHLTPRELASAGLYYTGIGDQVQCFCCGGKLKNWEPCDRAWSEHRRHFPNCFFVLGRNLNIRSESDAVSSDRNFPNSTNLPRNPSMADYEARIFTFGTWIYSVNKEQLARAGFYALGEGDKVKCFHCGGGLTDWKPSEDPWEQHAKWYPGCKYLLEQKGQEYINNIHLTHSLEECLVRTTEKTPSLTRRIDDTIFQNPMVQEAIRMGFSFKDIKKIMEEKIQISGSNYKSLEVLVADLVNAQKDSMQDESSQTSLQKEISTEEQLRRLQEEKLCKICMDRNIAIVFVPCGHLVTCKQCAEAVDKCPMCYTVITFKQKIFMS

The list shows a part of the results, in another mix than the full data. Activity calls are given as the source filed them. Rule as the data show it: active = displacement above about 50%; inactive = the rest.

This assay addresses E3 ubiquitin-protein ligase XIAP (Homo sapiens) (UniProt P98170). The assay can be described thus: small molecules displacing peptide from XIAP – biochemical, IAP family, fluorescence polarization (AID 1018). To be noted: XIAP BIR domain, at 20 µM, stronger effect = higher value.
Consider `CN(C)CCOC(=O)C(O)(c1ccccc1)C1CCCC1` (stereo not given), for which the displacement was inactive: -4.3%.
As for `COc1ccc(OP(C)(=O)Nc2ccccn2)cc1` (stereo not given), the displacement was inactive: -3.9%.
As for `CCc1ccc(OP(C)(=O)O)cc1`, the displacement is inactive: -5.3%.
Next, `COc1ccccc1OP(C)(=O)Nc1ccc(C)cc1C` (stereo not given): inactive: -21.2%; `CP(=O)(Nc1ccccn1)Oc1ccccc1` (stereo not given): inactive: -2.8%.
In the case of `O=[N+]([O-])c1cc([N+](=O)[O-])c(Nc2ccccn2)c([N+](=O)[O-])c1`, the displacement was inactive: -2.9%.
With `Cc1c(NP(C)(=O)Oc2ccc(C(C)C)cc2)c(=O)n(-c2ccccc2)n1C` (stereo not given), the displacement is inactive: -3.4%.
Then `COc1ccc(OP(C)(=O)Nc2ccccc2Br)cc1` (stereo not given), with inactive: -7.2%; and `COc1ccccc1OP(C)(=O)Nc1ccc(C)c(C)c1` (stereo not given), with inactive: -4.4%.
Then `Cc1cc(C)cc(OP(C)(=O)Nc2cccc(C(F)(F)F)c2)c1` (stereo not given), with inactive: -6.2%; and `CP(=O)(OCCOc1ccccc1)OCCOc1ccccc1`, with inactive: -6.3%; and `CP(=O)(Nc1ccc(Cl)cc1Cl)Oc1ccccc1` (stereo not given), with inactive: -2.3%.
For the molecule `Cc1nc2ccc3ccccc3c2o1.O=[N+]([O-])c1cc([N+](=O)[O-])c(O)c([N+](=O)[O-])c1`, the displacement was inactive: -4.3%.
Next, `CP(=O)(OC12CC3CC(CC(C3)C1)C2)OC12CC3CC(CC(C3)C1)C2`: inactive: -17.9%; `CCOC(=O)c1ccc(NP(C)(=O)Oc2ccc(Cl)cc2)cc1` (stereo not given): inactive: -5.4%; `CCc1ccc(OP(C)(=O)Nc2cccnc2)cc1` (stereo not given): inactive: -5.9%.
Then `CP(=O)(Oc1ccccc1)N1CCOC1=O` (stereo not given), with inactive: -5.2%; and `COc1ccccc1OP(C)(=O)Nc1c(C)n(C)n(-c2ccccc2)c1=O` (stereo not given), with inactive: -6.7%.
On to `COc1ccc(OP(C)(=O)Nc2ccc(Br)cc2)cc1` (stereo not given), for which the displacement was inactive: -4.3%.
With `CCN(CC)CC(O)COC(=O)C(O)(c1ccccc1)C1CCCCC1` (stereo not given), the displacement was inactive: -0.3%.
Then `CN(C)C(=O)c1c([N+](=O)[O-])cc([N+](=O)[O-])cc1[N+](=O)[O-]`, with inactive: -1%; and `CP(=O)(Nc1ccc(Cl)cc1)Oc1ccc(F)cc1` (stereo not given), with inactive: -0.5%; and `CC(C)(C)c1ccc(OP(C)(=O)O)cc1`, with inactive: -6.7%.
Next, `COc1ccccc1OP(C)(=O)Nc1ccccc1Br` (stereo not given): inactive: -4.5%; `CCOP(C)(=S)SCC(=O)NC(C)(CC)C(=O)O` (stereo not given): inactive: -2.9%; `Cc1ccccc1NP(C)(=O)Nc1ccccc1C`: inactive: -2.5%.
Next, `CP(=O)(Nc1ccc2c(c1)OCCO2)Oc1ccccc1` (stereo not given): inactive: -2.2%.
For the molecule `COc1ccc(NP(C)(=O)Oc2ccccc2OC)cc1` (stereo not given), the displacement is inactive: -2.8%.
Next, `CN(C)CCOC(=O)C(O)(c1ccccc1)C1CCCCC1` (stereo not given): inactive: -2.9%; `COc1ccc(OP(C)(=O)Nc2cccc(Br)c2)cc1` (stereo not given): inactive: -1.5%; `O=[N+]([O-])c1cc([N+](=O)[O-])c(NCC2CCS(=O)(=O)C2)c([N+](=O)[O-])c1` (stereo not given): inactive: -0.8%.
Then `COc1ccc(OP(C)(=O)Nc2ccc(SC(F)(F)F)cc2)cc1` (stereo not given), with inactive: -8.2%; and `CCOC(=O)c1ccc(NP(C)(=O)Oc2ccc(F)cc2)cc1` (stereo not given), with inactive: -4.4%; and `CP(=O)(Nc1ccccc1)Oc1ccc(F)cc1` (stereo not given), with inactive: -2.6%.
Then `CCN(CC)CCCOC(=O)C(O)(c1ccccc1)C1CCCCC1` (stereo not given), with inactive: -0.1%.
Consider `CC(C)c1ccc(OP(C)(=O)Nc2ccc(SC(F)(F)F)cc2)cc1` (stereo not given), for which the displacement is inactive: 8.5%.
Then `CP(=O)(Nc1ccccc1F)Oc1ccccc1` (stereo not given), with inactive: -3.7%; and `O=C(OCCN1CCN(CCOCc2ccccc2)CC1)C(O)(c1ccccc1)c1ccccc1`, with inactive: -0.1%.
Next, `Cc1cc(C)cc(OP(C)(=O)Nc2ccc(C)cc2C)c1` (stereo not given): inactive: -3.8%; `CCOC(=O)c1ccc(NP(C)(=O)Oc2cc(C)cc(C)c2)cc1` (stereo not given): inactive: -3.5%.
As for `CP(=O)(Nc1cccc(Br)c1)Oc1ccccc1` (stereo not given), the displacement is inactive: -7.4%.
Then `Cc1cc(C)cc(OP(C)(=O)Nc2ccccn2)c1` (stereo not given), with inactive: -1.8%.
For `Cc1ccc(C)c(NP(C)(=O)Oc2ccccc2)c1` (stereo not given), the displacement was inactive: -1.7%.
As for `CC1=NCCc2c1[nH]c1ccccc21.O=[N+]([O-])c1cc([N+](=O)[O-])c(O)c([N+](=O)[O-])c1`, the displacement is inactive: -3.9%.
As for `CP(=O)(Nc1ccc(SC(F)(F)F)cc1)Oc1ccccc1` (stereo not given), the displacement was inactive: -1%.
As for `CCCOc1ccc(NP(C)(=O)Oc2ccc(Cl)cc2)cc1` (stereo not given), the displacement was inactive: -3%.
As for `COc1ccccc1OP(C)(=O)Nc1c(C)cccc1C` (stereo not given), the displacement was inactive: -6.4%.
As to `CN1CCCCC1COC(=O)C1(O)c2ccccc2CCc2ccccc21` (stereo not given), the displacement was inactive: -2.8%.
With `O=[N+]([O-])c1cc([N+](=O)[O-])c(-n2nnc3ccccc32)c([N+](=O)[O-])c1`, the displacement is inactive: -0.3%.
Then `Cc1nc2ccc3ccccc3c2s1.O=[N+]([O-])c1cc([N+](=O)[O-])c(O)c([N+](=O)[O-])c1`, with inactive: -1.5%.
Then `Cc1cc(C)cc(OP(C)(=O)Nc2ccc(SC(F)(F)F)cc2)c1` (stereo not given), with inactive: -3.8%; and `CP(=O)(NC(=O)Nc1ccccc1)Oc1ccccc1` (stereo not given), with inactive: 1.4%.
Turning to `CP(=O)(Oc1ccccc1)OC(c1ccccc1)C(F)(F)F` (stereo not given), the displacement was inactive: -2.5%.
For the molecule `Cc1cccc(C)c1OP(C)(=O)Nc1ccc(SC(F)(F)F)cc1` (stereo not given), the displacement was inactive: -4.4%.
For the molecule `CP(=O)(Nc1ccccn1)Oc1ccc(Cl)cc1` (stereo not given), the displacement is inactive: -3.6%.
Regarding `CCOP(C)(=S)SCC(=O)NC(C)C(=O)O` (stereo not given), the displacement is inactive: -2.2%.
Turning to `CCOC(=O)c1ccc(NP(C)(=O)Oc2ccc(OC)cc2)cc1` (stereo not given), the displacement is inactive: -0.8%.
Take `COc1ccccc1OP(C)(=O)Nc1ccccc1` (stereo not given): the displacement was inactive: 0.5%.
Next, `CP(=O)(Nc1ccccc1Br)Oc1ccccc1` (stereo not given): inactive: -23.5%; `CP(=S)(Nn1cnnc1)Oc1ccccc1` (stereo not given): inactive: 1%; `Cc1cccc(C)c1OP(C)(N)=O` (stereo not given): inactive: -4.9%.
Next, `CC(C)(C)c1ccc(OP(C)(=O)Nc2ccc(SC(F)(F)F)cc2)cc1` (stereo not given): inactive: -4.5%; `O=[N+]([O-])c1ccc2c(c1)C=Nc1ccccc1O2`: inactive: -6.7%.
Next, `COc1ccc(OP(C)(=O)Nc2cccc(F)c2)cc1` (stereo not given): inactive: -7.3%; `COc1ccccc1OP(C)(=O)Nc1cc(Cl)ccc1C` (stereo not given): inactive: -6%; `Cc1cc(C)cc(OP(C)(N)=O)c1` (stereo not given): inactive: -8.4%.
As for `CCOC(=O)c1ccc(NP(C)(=O)Oc2ccccc2)cc1` (stereo not given), the displacement was inactive: -0.9%.
Take `Cc1ccc(NP(C)(=O)Oc2ccccc2)c(C)c1` (stereo not given): the displacement is inactive: -8.8%.
On to `COc1ccccc1OP(C)(=O)Nc1ccc(C)cc1` (stereo not given), for which the displacement is inactive: -7.6%.
For `CCN(CC)CCCOC(=O)C(O)(c1ccccc1)c1ccccc1`, the displacement was inactive: -0.7%.
